Data from paper PMC6553764 (PLoS ONE, 2019).

How the values were obtained:
Settings in all cases: both partners purified
Kap95 [1] = biological target: T1, Kap95 (UniProt Q06142 1-861); experiment: SPR; FSFG6 immobilised via C-terminal Cys (GLC chip), medium density 550 RU; association 15 s; 100 ul/min, TBT-PVP, 25 C; Langmuir isotherm analysis
T1 construct: Kap95, a karyopherin transport factor; also called Kap95 without the GST domain
T1 sequence (looked up): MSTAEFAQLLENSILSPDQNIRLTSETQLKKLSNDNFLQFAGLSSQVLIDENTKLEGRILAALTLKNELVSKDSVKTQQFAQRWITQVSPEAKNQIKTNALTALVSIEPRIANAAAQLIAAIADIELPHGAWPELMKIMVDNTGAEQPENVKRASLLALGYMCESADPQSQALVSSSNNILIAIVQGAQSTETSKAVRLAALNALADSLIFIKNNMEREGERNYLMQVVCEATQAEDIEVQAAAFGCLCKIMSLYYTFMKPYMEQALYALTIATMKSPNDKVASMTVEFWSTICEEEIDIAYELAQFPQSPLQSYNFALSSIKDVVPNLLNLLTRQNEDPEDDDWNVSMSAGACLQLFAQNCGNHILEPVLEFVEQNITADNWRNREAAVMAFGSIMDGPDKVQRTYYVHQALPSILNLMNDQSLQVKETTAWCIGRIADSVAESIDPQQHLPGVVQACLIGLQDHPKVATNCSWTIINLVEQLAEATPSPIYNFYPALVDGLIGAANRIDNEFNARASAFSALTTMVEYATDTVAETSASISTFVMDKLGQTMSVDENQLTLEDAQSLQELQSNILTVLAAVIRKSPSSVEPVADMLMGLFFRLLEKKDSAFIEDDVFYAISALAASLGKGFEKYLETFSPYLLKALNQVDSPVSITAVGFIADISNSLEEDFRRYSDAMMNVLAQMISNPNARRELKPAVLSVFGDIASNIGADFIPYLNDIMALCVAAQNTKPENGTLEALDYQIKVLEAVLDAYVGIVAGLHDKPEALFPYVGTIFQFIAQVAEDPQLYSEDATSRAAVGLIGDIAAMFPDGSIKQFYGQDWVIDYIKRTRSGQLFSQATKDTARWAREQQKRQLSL

Kap95 [2] = biological target: T1, Kap95; experiment: SPR; FSFG6 immobilised via C-terminal Cys (GLC chip), low density 415 RU; association 60 s; 100 ul/min, TBT-PVP, 25 C; fit: one-to-one model
Kap95 [3] = biological target: T1, Kap95; experiment: SPR; FSFG6 immobilised via C-terminal Cys (GLC chip), high density 791 RU; association 60 s; 100 ul/min, TBT-PVP, 25 C; Langmuir isotherm analysis
Kap95 [4] = biological target: T1, Kap95; experiment: SPR; FSFG6 immobilised via C-terminal Cys (GLC chip), low density 415 RU; association 120 s; 100 ul/min, TBT-PVP, 25 C; fit: one-to-one plus mass transport limitation model
Kap95 [5] = biological target: T1, Kap95; experiment: SPR; FSFG6 immobilised via C-terminal Cys (GLC chip), high density 791 RU; association 15 s; 100 ul/min, TBT-PVP, 25 C; Langmuir isotherm analysis
Kap95 [6] = biological target: T1, Kap95; experiment: SPR; FSFG6 immobilised via C-terminal Cys (GLC chip), high density 791 RU; association 30 s; 100 ul/min, TBT-PVP, 25 C; Langmuir isotherm analysis
Kap95 [7] = biological target: T1, Kap95; experiment: SPR; FSFG6 immobilised via C-terminal Cys (GLC chip), medium density 550 RU; association 120 s; 100 ul/min, TBT-PVP, 25 C; Langmuir isotherm analysis
Kap95 [8] = biological target: T1, Kap95; experiment: SPR; FSFG6 immobilised via C-terminal Cys (GLC chip), medium density 550 RU; association 120 s; 100 ul/min, TBT-PVP, 25 C; fit: one-to-one model
Kap95 [9] = biological target: T1, Kap95; experiment: SPR; FSFG6 immobilised via C-terminal Cys (GLC chip), medium density 550 RU; association 60 s; 100 ul/min, TBT-PVP, 25 C; fit: one-to-one plus mass transport limitation model

B1: FSFG6-Cys-His6 (domain or fragment)
chain: not shown
modifications: conjugated to the sensor surface through the C-terminal cysteine (maleimide)
notes: Segment of Nsp1FG (S. cerevisiae Nsp1) with six repeats of the FxFG-type region, followed by an added Cys, LE and His6
For B1, the Kd (Kap95 [1]) was 59.3 nM, the Kd (Kap95 [2]) was 5.49 nM and the koff (Kap95 [2]) was 0.00301 s⁻¹. For the same binder, the kon (Kap95 [2]) was 549000 M⁻¹ s⁻¹, the Kd (Kap95 [3]) was 22.6 nM and the Kd (Kap95 [4]) was 28.3 nM. The koff (Kap95 [4]) was 0.00326 s⁻¹, the kon (Kap95 [4]) was 115000 M⁻¹ s⁻¹ and the Kd (Kap95 [5]) was 64.5 nM. For the same binder, the Kd (Kap95 [6]) was 54.7 nM, the Kd (Kap95 [7]) was 30.4 nM and the Kd (Kap95 [8]) was 5.45 nM. For the same binder, the koff (Kap95 [8]) was 0.0025 s⁻¹, the kon (Kap95 [8]) was 459000 M⁻¹ s⁻¹ and the Kd (Kap95 [9]) was 2.49 nM. The koff (Kap95 [9]) was 0.00386 s⁻¹ and the kon (Kap95 [9]) was 1.55e+06 M⁻¹ s⁻¹.
